molecular target: NMDA receptor; assay type: binding; details: not given

| SMILES | IC50 [nM] |
| --- | --- |
| CC[C@H](C)[C@H](NC(=O)[C@H](CC(C)C)NC(=O)[C@H](CC(C(=O)O)C(=O)O)NC(=O)[C@H](CCC(N)=O)NC(=O)[C@H](CC(N)=O)NC(=O)[C@H](Cc1ccc(O)cc1)NC(=O)[C@H](CCC(N)=O)NC(=O)[C@H](CC(C)C)NC(=O)[C@H](CC(C(=O)O)C(=O)O)NC(=O)[C@H](CC(C(=O)O)C(=O)O)NC(=O)[C@H](CCC(=O)O)NC(=O)CN)C(=O)N[C@@H](CCCNC(=N)N)C(=O)N[C@@H](CC(C(=O)O)C(=O)O)C(=O)N[C@@H](CCCCN)C(=O)N[C@@H](CO)C(=O)N[C@@H](CC(N)=O)C(N)=O [Y^3] | 960 |
| CC[C@H](C)[C@H](NC(=O)[C@H](CC(C)C)NC(=O)[C@H](C)NC(=O)[C@H](CCC(N)=O)NC(=O)[C@H](CC(N)=O)NC(=O)[C@H](C)NC(=O)[C@H](CCC(N)=O)NC(=O)[C@H](CC(C)C)NC(=O)[C@H](CC(C(=O)O)C(=O)O)NC(=O)[C@H](CC(C(=O)O)C(=O)O)NC(=O)[C@H](CCC(=O)O)NC(=O)CN)C(=O)N[C@@H](CCCNC(=N)N)C(=O)N[C@@H](C)C(=O)N[C@@H](CCCCN)C(N)=O [(A^7,10,14)1-15] | 34 |
| CC[C@H](C)[C@H](NC(=O)[C@H](CC(C)C)NC(=O)[C@H](CCC(=O)O)NC(=O)[C@H](CCC(N)=O)NC(=O)[C@H](CC(N)=O)NC(=O)[C@H](CCC(=O)O)NC(=O)[C@H](CCC(N)=O)NC(=O)[C@H](CC(C)C)NC(=O)[C@H](CC(C(=O)O)C(=O)O)NC(=O)[C@H](CC(C(=O)O)C(=O)O)NC(=O)[C@H](CCC(=O)O)NC(=O)CN)C(=O)N[C@@H](CCCNC(=N)N)C(=O)N[C@@H](CCC(=O)O)C(=O)N[C@@H](CCCCN)C(=O)N[C@@H](CO)C(=O)N[C@@H](CC(N)=O)C(N)=O [E^7,10,14] | ≥ 20000 |
| CC[C@H](C)[C@H](NC(=O)[C@H](CC(C)C)NC(=O)[C@H](C)NC(=O)[C@H](CCC(N)=O)NC(=O)[C@H](CC(N)=O)NC(=O)[C@H](C)NC(=O)[C@H](CCC(N)=O)NC(=O)[C@H](CC(C)C)NC(=O)[C@H](CC(C(=O)O)C(=O)O)NC(=O)[C@H](CC(C(=O)O)C(=O)O)NC(=O)[C@H](CCC(=O)O)NC(=O)CN)C(=O)N[C@@H](CCCNC(=N)N)C(=O)N[C@@H](C)C(=O)N[C@@H](CCCCN)C(=O)N[C@@H](CO)C(=O)N[C@@H](CC(N)=O)C(N)=O [A^7,10,14] | 88 |
| CC[C@H](C)[C@H](NC(=O)[C@H](CC(C)C)NC(=O)[C@H](C)NC(=O)[C@H](CCC(N)=O)NC(=O)[C@H](CC(N)=O)NC(=O)[C@H](C)NC(=O)[C@H](CCC(N)=O)NC(=O)[C@H](CC(C)C)NC(=O)[C@H](CC(C(=O)O)C(=O)O)NC(=O)[C@H](CC(C(=O)O)C(=O)O)NC(=O)[C@H](CCC(=O)O)NC(=O)CN)C(=O)N[C@@H](CCCNC(=N)N)C(=O)N[C@@H](C)C(N)=O [(A^7,10,14)1-14] | 232 |
| CC[C@H](C)[C@H](NC(=O)[C@H](CC(C)C)NC(=O)[C@H](C)NC(=O)[C@H](CCC(N)=O)NC(=O)[C@H](CC(N)=O)NC(=O)[C@H](C)NC(=O)[C@H](CCC(N)=O)NC(=O)[C@H](CC(C)C)NC(=O)[C@H](CC(C(=O)O)C(=O)O)NC(=O)[C@H](CC(C(=O)O)C(=O)O)NC(=O)[C@H](CCC(=O)O)NC(=O)CN)C(=O)N[C@@H](CCCNC(=N)N)C(=O)N[C@@H](C)C(=O)N[C@@H](CCCCN)C(=O)N[C@@H](CO)C(N)=O [(A^7,10,14)1-16] | 37 |

tested on: not given; details: 37° C.

| SMILES | stability in biological media |
| --- | --- |
| CC[C@H](C)[C@H](NC(=O)[C@H](CC(C)C)NC(=O)[C@H](CC(C(=O)O)C(=O)O)NC(=O)[C@H](CCC(N)=O)NC(=O)[C@H](CC(N)=O)NC(=O)[C@H](CC(C(=O)O)C(=O)O)NC(=O)[C@H](CCC(N)=O)NC(=O)[C@H](CC(C)C)NC(=O)[C@H](CC(C(=O)O)C(=O)O)NC(=O)[C@H](C)NC(=O)[C@H](CCC(=O)O)NC(=O)CN)C(=O)N[C@@H](CCCNC(=N)N)C(=O)N[C@@H](CC(C(=O)O)C(=O)O)C(=O)N[C@@H](CCCCN)C(=O)N[C@@H](CO)C(=O)N[C@@H](CC(N)=O)C(N)=O [A^3] | stable |

Reference: patent US6515103B1 (priority 1996, dated 2003)
